The record followed here is patent US12378521B2, “Method for enhancing production of genetically engineered autologous T cells” (AMGEN INC., priority 2020, dated 2025).

Assay [1] concerns apheresed donor cells. Put plainly: T cell expansion in XURI W25 bioreactor, media with IL-2 or IL7/IL-21/TWS119: growth and viability. The format is cell-based, human. To be noted: 10 days.
Assay [2] concerns T cells. In words: Activation profile by CD25 surface expression, IL-2 withdrawal (Example 8). The format is cell-based, human.
For assay [3], the system named is T2 cells. Put plainly: Specific target cell lysis of peptide pulsed T2 cells (Example 8). The format is cell-based. To be noted: IL-2 withdrawal Day 5 and Day 6.
The test system of assay [4] is T2 cells. Put plainly: Unspecific cell lysis (target irrelevant killing) of T2 cells (Example 8). The format is cell-based. To be noted: IL-2 withdrawal Day 5 and Day 6; E:T 1:5, 1:1, 5:1; 24 hours.
The subject of assay [5] is apheresed donor cells. In words: Cell growth and viability, IL-2 withdrawal (Example 8). The format is cell-based, human. To be noted: IL-2 withdrawal at Day 4.
The subject of assay [6] is T cells. In words: Engineered TCR surface expression by dextramer staining, IL-2 withdrawal. To be noted: IL-2 withdrawal at Day 4. It is filed as cell-based, human.
The test system of assay [7] is T cells. Put plainly: T cell differentiation into memory subsets, IL-2 withdrawal. It is filed as cell-based, human.
Assay [8] concerns T cells. Put plainly: T cell purity by flow cytometry, IL-2 withdrawal. It is filed as cell-based, human. Particulars: IL-2 withdrawal at Day 4, 5 or 6.

Turning to “IL-2: soluble cytokine, 300 IU/ml in OpTmizer complete media”, in assay [1], the T cells yielded is reported as 16 billion T cells. The “CD25 expression upon harvest” value in assay [2] (Control continuously supplemented with IL-2 300 IU/ml) is 50-80%; in assay [2] (IL-2 withdrawal at Day 4, Day 5 and Day 6), less than 10%. Besides, the “percentage of specific target cells lysis” value in assay [3] is given as “did not affect”. The “reduction of percentage of unspecific killing (target irrelevant killing) compared to Control” value in assay [4] is roughly 40%. Besides, the Cell expansion result in assay [5] was “inhibited cell expansion significantly”. In assay [6], the TCR surface expression entry is on record as “reduced TCR surface expression”. Besides, the T cell differentiation result in assay [7] (IL-2 withdrawal at Day 4 and Day 6) is “more advanced T cell differentiation”; in assay [7] (IL-2 withdrawal at Day 5), “maintain T cell differentiation at the same level as the Control”. For the same substance, the “CD3+ cell purity compared to Control” value in assay [8] was “no impact on CD3+ cell purity”.
